Results taken from PMC12247020, “A Cyclized Helix‐Loop‐Helix Peptide as a Molecular Scaffold for Cell‐Membrane Permeable Inhibitors for the Interaction Between Estrogen Receptor α and Coactivator SRC1” (Chembiochem, 2025).
Bridge positions count the residues as written; N and C are the ends. Peptide text beside a SMILES is read from it. * marks the point of attachment. X1 = CN(C)c1ccc2c(c1)Oc1cc(N(C)C)ccc1C21OC(=O)c2cc(NC(=O)C*)ccc21

System: MCF‐7 breast cancer cells
Assay: Live cell confocal laser microscopy of TMR‐labeled peptides (cell membrane permeability)
Conditions: MCF‐7 cells, 3 μM TMR‐labeled peptide, 5‐min incubation, 5% CO2, nuclei stained with Hoechst 33 342, fluorescence imaging

`CC(C)C[C@@H]1NC(=O)[C@H](C)NC(=O)[C@H](C)NC(=O)[C@H](CC(C)C)NC(=O)[C@H](CCCCN)NC(=O)CNC(=O)CNC(=O)CNC(=O)CNC(=O)CNC(=O)CNC(=O)CNC(=O)[C@H](CCC(=O)O)NC(=O)[C@H](CC(C)C)NC(=O)[C@H](CCCNC(=N)N)NC(=O)[C@H](CCCNC(=N)N)NC(=O)[C@H](CC(C)C)NC(=O)[C@H](CCC(=O)O)NC(=O)[C@H](CCCNC(=N)N)NC(=O)[C@H](CCC(=O)O)NC(=O)[C@H](CC(C)C)NC(=O)[C@H](CCCNC(=N)N)NC(=O)[C@H](CCCNC(=N)N)NC(=O)[C@H](CC(C)C)NC(=O)[C@H](CCC(=O)O)NC(=O)[C@H](CCCNC(=N)N)NC(=O)[C@H](CSCC(=O)Nc2ccc3c(c2)C(=O)OC32c3ccc(N(C)C)cc3Oc3cc(N(C)C)ccc32)NC(=O)CNC(=O)CSC[C@@H](C(N)=O)NC(=O)[C@H](Cc2ccc(O)cc2)NC(=O)[C@H](C)NC(=O)[C@H](CCCCN)NC(=O)[C@H](CC(C)C)NC(=O)[C@H](CC(C)C)NC(=O)[C@H](CC(C)C)NC(=O)[C@H](CC(C)C)NC(=O)[C@H](CCCCN)NC(=O)[C@H](CC(C)C)NC(=O)[C@H](CCCCN)NC1=O` [TMR‐cHLH‐ERα] ({CH2CO}-GC(X1)RELRRLERELRRLEGGGGGGGKLAALKLKLLLLKAYC-NH2; thioether N-39) was tested, and the “cell membrane permeability, confocal laser microscopy, 37 °C” value was “appeared diffuse inside the cells and partially accumulated inside the nuclei”.
